Only a part is listed here, and it is no random draw. Calls of active or inactive are those of the source.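 How the source made its calls: active means inhibition of at least 50% at 20 µM; inactive means the rest.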

This assay can be described thus: inhibition of PEG-3 promoter activity – cell-based, HeLa, luciferase luminescence, primary screen (AID 588405). To be noted: HeLa PEG-Prom luciferase reporter, overnight, at 20 µM, stronger effect = higher value. (In general: Reporter assays use an easily measured gene product as a stand-in for the process of interest.)
In the case of `CCC(=O)N(c1ccccc1)C1(COC)CCN(CCc2cccs2)CC1`, the inhibition (usually the relative decrease from the control value, in per cent) is inactive: -7.61%.
Turning to `CCC(=O)N(c1ccccc1)C1(COC)CCN(CCn2nnn(CC)c2=O)CC1`, the inhibition was inactive: 3.77%.
